# Data taken from PubChem BioAssay AID2676 (National Center for Advancing Translational Sciences (NCATS), 2010).
# Sequences of proteins named here, by UniProt entry; tags and fusion partners are left off.
# UniProt Q9HBX9, whole entry: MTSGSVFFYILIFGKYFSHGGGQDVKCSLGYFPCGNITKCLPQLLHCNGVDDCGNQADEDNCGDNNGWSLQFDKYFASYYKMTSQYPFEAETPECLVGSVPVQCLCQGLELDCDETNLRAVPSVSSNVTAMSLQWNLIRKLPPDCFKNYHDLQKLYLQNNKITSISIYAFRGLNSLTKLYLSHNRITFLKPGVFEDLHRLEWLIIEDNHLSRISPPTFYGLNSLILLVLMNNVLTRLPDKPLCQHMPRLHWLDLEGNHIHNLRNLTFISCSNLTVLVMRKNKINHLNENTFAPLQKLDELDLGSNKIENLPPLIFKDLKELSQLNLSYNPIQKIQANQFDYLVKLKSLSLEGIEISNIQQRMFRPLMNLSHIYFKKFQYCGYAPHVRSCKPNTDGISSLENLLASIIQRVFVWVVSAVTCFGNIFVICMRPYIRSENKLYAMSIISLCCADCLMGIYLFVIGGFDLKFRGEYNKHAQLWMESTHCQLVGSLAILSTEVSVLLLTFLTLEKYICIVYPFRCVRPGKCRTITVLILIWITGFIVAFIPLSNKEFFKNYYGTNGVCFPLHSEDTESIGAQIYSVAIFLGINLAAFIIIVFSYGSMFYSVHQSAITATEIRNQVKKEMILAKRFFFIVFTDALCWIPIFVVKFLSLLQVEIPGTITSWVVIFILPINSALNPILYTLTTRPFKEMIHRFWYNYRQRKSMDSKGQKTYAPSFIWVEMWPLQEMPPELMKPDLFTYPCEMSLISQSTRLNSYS
# The entries are a selection whose mix differs from that of the whole data set. Some salts and complexes are drawn in separate pieces, as the source files them; their charges need not balance. Calls of active or inactive are those of the source. Calls come from the whole dose curve; as a rule, active = well fitted activation curve with a large enough effect; inconclusive = small, poorly fitted or top-dose-only effect; inactive = flat fitted curve, though single readings scatter.
# Molecular target: Relaxin receptor 1 (Homo sapiens) (UniProt Q9HBX9)
# Experiment: qHTS Assay for Agonists of the Relaxin Receptor RXFP1; note: nearly all actives have a fitted effect of over 60% in size
# Conditions: HEK293T-RXFP1 cAMP TR-FRET, 30 min, percent of porcine relaxin response, buffer zero; at 57.5 µM (top of the series)
# Source text: NIH Chemical Genomics Center [NCGC] NIH Molecular Libraries Probe Production Centers Network [MLPCN] MLPCN Grant: R03 MH085705-01A1 Assay Submitter (PI): Alexander Agoulnik NCGC Assay Overview: The relaxin hormone is involved in the variety of biological functions in normal tissues and diseases. The role of relaxin is well-established in female reproduction and parturition, mammary gland and endometrial development, maintenance of myometrial quiescence during pregnancy. Relaxin signaling through its G protein-coupled receptor (GPCR) RXFP1 results in ECM remodeling through regulation of collagen deposition, cell invasiveness, proliferation and overall tissue homeostasis. […] Recombinant human relaxin (rhRlx) is currently being tested in clinical trials as a protective agent in congestive heart failure, in treating severe preeclampsia, and as an anti-fibrotic agent in systemic sclerosis. Upon relaxin binding RXFP1 activation leads to the activation of adenylate cyclase (AC) via Gs. cAMP will activate PKA, which phosphorylates many signaling proteins. Thus, detection of cAMP increase is an easy and reliable indication of relaxin receptor activation. To screen for agonists of the relaxin receptor, a HEK293T cell line stably transfected with RXFP1 was used. RXFP1 activation was assayed by changes in cAMP levels as detected with a time-resolved fluorescence energy transfer (TR-FRET) cAMP detection kit.
# NCGC Assay Protocol Summary: This is a cell-based assay for cAMP second messenger response to screen for agonists of the RXFP1 receptor. The assay was conducted in the presence of a PDE4 inhibitor (Ro 20174). The cells were lysed and the cAMP levels were measured with a TR-FRET cAMP kit. Presence of cAMP in the cell lysate disrupts binding between the cryptate-labeled anti-cAMP and d2-labeled cAMP pair, leading to a decrease in the TR-FRET signal. Data were normalized to the controls for basal activity (buffer only) and 100% activity (29 nM porcine relaxin). The EC50 values were determined from concentration-response data modeled with the standard Hill equation 1536-well assay protocol for the HEK293 RXFP1 cAMP assay: (1) Add 3 ul HEK293 RXFP1 cell culture. 2000 cells/well in DMEM/F12, 10% FBS, 1x Pen/Strep (dispensed offline with MultiDrop Combi). (2) Incubate 16-24 hr at 37C, 5% CO2. (3) Add 1 ul 400uM Ro20174 in DPBS, 0.05% BSA, 0.005% Tween 20. (3) Add 23 nl compounds in DMSO solution. Final concentration was 0.5 - 58 uM. (4) Incubate 30 min at 37C, 5% CO2. (5) Add 1 ul cAMP-d2 in lysis buffer (HTRF cAMP HiRange kit, CisBio). (6) Add 1 ul anti-cAMP antibody-cryptate in lysis buffer (HTRF cAMP HiRange kit, CisBio). (7) Incubate 30 min at room temperature. (6) Detect the assay plate in a ViewLux plate reader (PerkinElmer) with Ex=320 nm, Em1=615 nm and Em2=665 nm. Keywords: relaxin, RXFP1, RXFP2, G-protein coupled receptor, cAMP, agonist, high throughput screening, MLSMR, MLSCN, NIH Roadmap, qHTS and NCGC
# % is set by controls: 0 for no effect and ±100 for the full control effect.
row,SMILES,activation
1,COc1cc(OC)c(C(=O)NCC2(N(C)C)CCCCC2)cc1OC,inactive: -0.0411%
2,CC(C)c1ccc(NC2CCN(C(=O)OC(C)(C)C)CC2)cc1,inactive: 0.69%
3,CN(C)c1cccc(C(=O)NCC2(N3CCCCC3)CCCCC2)c1,inactive: 0.86%
4,O=[N+]([O-])c1cc([N+](=O)[O-])c(OC2CCCCC2O)c([N+](=O)[O-])c1 (stereo not given),inactive: 1.05%
5,COc1ccc(CN(CCCl)CCCl)cc1Cl,inactive: 0.249%
6,O=C(NCC1(N2CCOCC2)CCCCC1)c1ccccc1Br,inactive: -1.42%
7,CCCOc1ccc(C(=O)NCC2(N(C)C)CCCCC2)cc1OC,inactive: 4%
8,CCCCOc1ccccc1C(=O)NCC1(N2CCOCC2)CCCCC1,inactive: -1.5%
9,O=C(OC1CN2CCC1CC2)c1ccc([N+](=O)[O-])cc1 (stereo not given),inactive: 0.482%
10,COc1ccc2c(c1O)-c1c(O)c(OC)cc3c1[C@H](C2)[N+](C)(C)CC3.O=[N+]([O-])c1cc([N+](=O)[O-])c([O-])c([N+](=O)[O-])c1[O-],inactive: -0.154%
11,O=C(NCC1(N2CCCCC2)CCCCC1)c1cncc(Br)c1,inactive: 1.44%
12,N#CC1(Nc2ccccc2)CCN(CCc2ccccc2)CC1,inactive: 0.455%
13,CCN1CCC(Nc2ccc(Cl)cc2)CC1,inactive: -1.18%
14,CSc1ccc(C(=O)NCC2(N3CCOCC3)CCCCC2)cc1,inactive: -0.471%
15,CCOc1ccc(C(=O)NCC2(N3CCOCC3)CCCCC2)cc1,inactive: 0.122%
16,O=C(NCC1(N2CCCCC2)CCCCC1)c1cccc([N+](=O)[O-])c1,inactive: 1.27%
17,O=C(NCC1(N2CCCCC2)CCCCC1)c1ccc(OC(F)F)cc1,inactive: 4.27%
18,O=C(NCC1(N2CCOCC2)CCCCC1)c1cc(=O)[nH]c2ccccc12,inactive: -0.701%
19,COc1cc(C(=O)NCC2(N3CCCCC3)CCCCC2)ccc1OC(F)F,inactive: 2.77%
20,CC(C)c1ccc(C(=O)NCC2(N3CCOCC3)CCCCC2)cc1,inactive: 0.808%
21,COc1ccc(NC2CCN(C(=O)OC(C)(C)C)CC2)cc1,inactive: 0.874%
22,CN1CCN(CCOC(=O)C(O)(c2ccccc2)c2ccccc2)CC1,inactive: 4.37%

row,SMILES,activation
1,O=[N+]([O-])c1cc([N+](=O)[O-])c(NCC2CCS(=O)(=O)C2)c([N+](=O)[O-])c1 (stereo not given),inactive: 3.34%
2,O=C(NCC1(N2CCCCC2)CCCCC1)c1cccc(C(F)(F)F)c1,inactive: 2.89%
3,CCCOc1cccc(C(=O)NCC2(N3CCOCC3)CCCCC2)c1,inactive: 0.181%
4,COc1ccccc1C(=O)NCC1(N2CCOCC2)CCCCC1,inactive: 1.71%
5,CCOC(=O)N1CCC(Nc2ccc(F)cc2)CC1,inactive: -0.0102%
6,COc1ccc(NC2CCN(CCc3ccccc3)CC2)c(OC)c1,inactive: -2.86%
7,CCCCOc1ccc(C(=O)NCC2(N3CCOCC3)CCCCC2)cc1,inactive: 1.41%
8,O=C(NCC1(N2CCCCC2)CCCCC1)c1ccc(F)cc1,inactive: -1.42%
9,O=C(NCC1(N2CCOCC2)CCCCC1)c1ccc(Cl)cc1,inactive: -3.37%
10,CCOc1ccc(C)cc1CN(CCCl)CCCl,inactive: 0.112%
11,Cc1ccc(OCC(C)C)c(CN(CCCl)CCCl)c1,inactive: 1.27%
12,CCOC(=O)N1CCC(Nc2cccc(C)c2)CC1,inactive: 0.687%
13,COc1cc(C(=O)NCC2(N(C)C)CCCCC2)ccc1OC(F)F,inactive: 2.03%
14,CSc1ccccc1C(=O)NCC1(N2CCCCC2)CCCCC1,inactive: -0.834%
15,CC(C)(C)OC(=O)N1CCC(N(C(=O)c2ccccc2)c2ccc(F)cc2)CC1,inactive: -0.857%
16,COc1ccc(C(=O)NCC2(N3CCCCC3)CCCCC2)c(OC)c1OC,inactive: 1.33%
17,COc1ccc(C(=O)NCC2(N3CCCCC3)CCCCC2)cc1,inactive: -0.93%
18,O=C(NCC1(N2CCCCC2)CCCCC1)c1cccs1,inactive: -1.06%
19,O=C(NCC1(N2CCCCC2)CCCCC1)c1ccc(=O)[nH]c1,inactive: 2.93%
20,COc1ccc(Cl)cc1C(=O)NCC1(N2CCOCC2)CCCCC1,inactive: 0.387%
21,N#CC1(Nc2ccccc2)CCN(Cc2ccccc2)CC1,inactive: 0.779%
22,O=C(NCC1(N2CCCCC2)CCCCC1)c1ccc(Cl)s1,inactive: -0.0954%

row,SMILES,activation
1,O=C(OC1CN2CCC1CC2)C1c2ccccc2Oc2ccccc21 (stereo not given),inactive: 1.5%
2,CCOC(=O)N1CCC(Nc2ccc(OC)cc2)CC1,inactive: -2.73%
3,Cc1cc(C)cc(N(C(=O)c2ccccc2)C2CCN(C(=O)OC(C)(C)C)CC2)c1,inactive: 4.85%
4,O=C(NCC1(N2CCCCC2)CCCCC1)c1ccc(Cl)nc1,inactive: -0.176%
5,O=C(NCC1(N2CCOCC2)CCCCC1)c1cc2ccccc2o1,inactive: 0.455%
6,O=C(O)C1(Nc2ccccc2)CCN(Cc2ccccc2)CC1,inactive: -0.708%
7,CC(C)(C)OC(=O)N1CCC(Nc2ccccc2)CC1,inactive: 2.36%
8,CCCOc1ccc(C(=O)NCC2(N(C)C)CCCCC2)cc1,inactive: 4.75%
9,CN1CCC(Nc2ccc(F)c(Cl)c2)CC1,inactive: 3.67%
10,CCOc1ncccc1C(=O)NCC1(N2CCOCC2)CCCCC1,inactive: 4%
11,CN1CCC(Nc2ccc(Cl)cc2)CC1,inactive: 1.05%
12,CCCOc1ccc(C)cc1CN(CCCl)CCCl,inactive: -0.0919%
13,COc1cccc(C(=O)N(c2cc(C)cc(C)c2)C2CCN(C(=O)OC(C)(C)C)CC2)c1,inactive: -1.82%
14,COc1cc(OC)cc(C(=O)NCC2(N3CCOCC3)CCCCC2)c1,inactive: 1.2%
15,COc1cc(C(=O)NCC2(N3CCOCC3)CCCCC2)cc(OC)c1OC,inactive: 1%
16,CCC(CO)(C(=O)OC1CN2CCC1CC2)c1ccccc1 (stereo not given),inactive: 2.78%
17,Fc1ccccc1NC1CCN(Cc2ccccc2)CC1,inactive: 0.59%
18,Cc1ccc(C(=O)NCC2(N3CCCCC3)CCCCC2)o1,inactive: -1.63%
19,CN(C)C1(CNC(=O)c2ccc(C(C)(C)C)cc2)CCCCC1,inactive: 0.0483%
20,COc1cc(OC)cc(C(=O)NCC2(N3CCCCC3)CCCCC2)c1,inactive: 5.84%
21,Cc1ccccc1C(=O)NCC1(N(C)C)CCCCC1,inactive: -4.18%
22,CN(C)c1ccc(C(=O)NCC2(N3CCCCC3)CCCCC2)cc1,inactive: -4.44%

row,SMILES,activation
1,O=C(NCC1(N2CCCCC2)CCCCC1)c1ccco1,inactive: -2.8%
2,CC(C)(C)c1ccc(C(=O)NCC2(N3CCOCC3)CCCCC2)cc1,inactive: 0.0663%
3,CCN1CCC(Nc2cccc(F)c2)CC1,inactive: -0.234%
4,CCOC(=O)C(CC)C1=NC(C)(C)Cc2ccccc21.O=[N+]([O-])c1cc([N+](=O)[O-])c(O)c([N+](=O)[O-])c1 (stereo not given),inactive: 0.502%
5,O=C(NCC1(N2CCOCC2)CCCCC1)c1ccccc1[N+](=O)[O-],inactive: -0.35%
6,N#Cc1ccc(C(=O)NCC2(N3CCCCC3)CCCCC2)cc1,inactive: -0.291%
7,O=C(NCC1(N2CCOCC2)CCCCC1)c1ccc([N+](=O)[O-])cc1,inactive: -2.1%
8,CC(C)(C)OC(=O)N1CCC(N(C(=O)c2ccccc2)c2ccc(Cl)cc2)CC1,inactive: 0%
9,CN(C)C1(CNC(=O)c2cccc(C#N)c2)CCCCC1,inactive: -2.3%
10,O=C(NCC1(N2CCOCC2)CCCCC1)c1ccccc1,inactive: 1.83%
11,CCCN1CCC(Nc2cc(OC)cc(OC)c2)CC1,inactive: 0.31%
12,c1ccc(CN2CCC(Nc3ccccc3)CC2)cc1,inactive: -2.76%
13,COc1ccc(C(=O)NCC2(N3CCOCC3)CCCCC2)cc1OC,inactive: 1.08%
14,O=C(NCC1(N2CCOCC2)CCCCC1)c1cc(Br)ccc1Cl,inactive: -0.552%
15,O=C(O)c1cccc(Nc2c([N+](=O)[O-])cc([N+](=O)[O-])cc2[N+](=O)[O-])c1,inactive: 1.25%
16,CCc1cc(C(=O)NCC2(N3CCCCC3)CCCCC2)sc1C,inactive: 1.14%
17,O=C(OC1CN2CCC1CC2)C1c2ccccc2C=Cc2ccccc21 (stereo not given),inactive: 1.99%
18,CCOC(=O)N1CCC(Nc2ccc(C)cc2)CC1,inactive: 3.11%
19,N/C(=N\O)c1c(N)no[n+]1[O-],inactive: 0.195%
